For two compounds, Emax and ligand score results are on record in patent publication US20230384333A1 (priority 2020, published 2023).

Protein sequences, listed by entry. Tags and fused reporters are not part of them.
UniProt P28223, whole entry I181A/E264Q, looked up: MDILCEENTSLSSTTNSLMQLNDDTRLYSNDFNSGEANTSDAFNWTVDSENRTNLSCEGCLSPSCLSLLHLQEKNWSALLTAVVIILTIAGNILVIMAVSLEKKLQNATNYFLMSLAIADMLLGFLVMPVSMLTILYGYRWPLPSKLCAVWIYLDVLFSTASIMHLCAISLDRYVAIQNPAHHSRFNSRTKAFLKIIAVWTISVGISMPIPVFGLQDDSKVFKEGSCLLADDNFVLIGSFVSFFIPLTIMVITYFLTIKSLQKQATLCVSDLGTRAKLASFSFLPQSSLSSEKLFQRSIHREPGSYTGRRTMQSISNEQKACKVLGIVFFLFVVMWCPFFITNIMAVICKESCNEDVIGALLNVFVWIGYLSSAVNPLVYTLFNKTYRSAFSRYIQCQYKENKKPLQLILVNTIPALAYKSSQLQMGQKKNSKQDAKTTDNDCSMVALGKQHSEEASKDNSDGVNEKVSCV

For test [1], the target named is psychLight1 (Homo sapiens, UniProt P28223, E264Q/I181A). Briefly: cell-based. The following applies: HEK-293T. The procedure:
HEK293T cells were grown in DMEM, supplemented with fetal bovine serum (FBS) and penicillin-streptomycin. Cells were trans-fected with Effectene according to the manufacturer's instructions. Prior to imaging, cells were washed with Hank's Balanced Salt Solution (HBSS) supplemented with 2 mM MgCl2 and 2 mM CaCl2). All images were collected in HBSS containing Mg^2+ and Ca^2+.
HEK293T cells were plated and transfected concurrently 24 h prior to each experiment using the QIAGEN Effectene Transfection
Dose-response experiments were performed using an Automate Perfusion System. Cells (HEK293T) were grown on 12 mm cover-slips and transfected with psychLight1. The coverslips were then placed into a coverslip holder and washed with 5 mL of HBSS containing 2 mM MgCl2 and 2 mM CaCl2). Cells were perfused first with 5 mL of 0.1% DMSO, then drugs in ascending concentrations from 1 pM to […] were added, with the concentration of DMSO being held constant at 0.10%. […] For the competition studies described in FIG. 19, HEK293T cells were prepared as described above; however, the cells were first exposed to 5 mL of 0.2% DMSO. […] Finally, the DF/F was calculated using the average of the baseline (0.1 or 0.2% DMSO) and the average intensity between each dosage over the average of the baseline.

In test [2] the test system is psychLight2. The format is cell-based, human. The procedure:
Compounds unlikely to bind to the sensor should produce minimal to no response in either agonist or antagonist mode. Therefore, a ligand score was calculated as: […]

“And” between values parts separate entries of the source, which are not always exact repeats. Equal values may be shown once.

Usually Emax stands for the maximal effect, on the per cent scale that the assay sets.

In test [1], `COc1cc(CC(C)N)c(OC)cc1I` (centres unmarked) [DOI, 2,5-dime-thoxy-4-iodoamphetamine] showed an Emax of 52.9%.

`CCN(CC)C(=O)[C@@H]1C=C2c3cccc4[nH]cc(c34)C[C@H]2N(C)C1` [LSD, lysergic acid diethylamide]: the ligand score in test [2] is 21 and 20.9 and 23.0.
